# Antibody variant affinities, Ab-14 light chain, assay 1

Target peptide (SARS-CoV-2 spike, HR2 region): PDVDLGDISGINAS

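Library AAYL50 holds single substitutions and randomly drawn double and triple substitutions in the CDRs. The assay is AlphaSeq: two haploid yeast populations carry antibody and antigen on their surface. The frequency of each diploid, read from paired DNA barcodes, reflects how well the two displayed proteins bind. The ratio of observed to expected reads was calibrated, replicate by replicate, on BCL2-family standards whose Kd was known from biolayer interferometry. Each pool was mated in three replicate cultures.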

The variants keep the heavy chain, the linker and the frameworks of Ab-14 (scFv order VH, a (GGGGS)3 linker, VL).
VH: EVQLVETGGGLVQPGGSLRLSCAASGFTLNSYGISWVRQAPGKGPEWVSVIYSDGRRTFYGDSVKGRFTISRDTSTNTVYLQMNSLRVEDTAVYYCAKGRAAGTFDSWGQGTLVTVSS
VL: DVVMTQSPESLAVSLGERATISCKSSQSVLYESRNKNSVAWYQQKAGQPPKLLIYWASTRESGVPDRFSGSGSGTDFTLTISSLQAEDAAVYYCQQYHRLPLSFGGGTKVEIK

The parent's light chain CDRs are KSSQSVLYESRNKNSVA, WASTRES, QQYHRLPLS; each variant's own CDRs replace them letter for letter. Every variant below is changed at Y97 of the VL (sequential numbering). Values are apparent Kd, the geometric mean of the replicates that gave a signal; lower means stronger binding. An entry "nd" has no value in the source: the pair was not observed among the diploids in any replicate. This suggests poor binding but is not conclusive. Background: pairings of library AAYL50 with three empty control strains gave a value in 18% of cases (median 15 µM, 5th percentile 970 nM). Values in that range, when seen in few replicates, are hard to tell from nonspecific mating.

KSSQSVLYESRNKNSVA | WASTRFS | QQDHRLPCS: nd (0 of 3 replicates).
KSSQSVLYESRNKNSVA | LLSTRES | QQKHRLPLS: nd (0 of 3 replicates).
KSSQSVLYESRNKNSVA | WASTMES | QQMHRLPLS: nd (0 of 3 replicates).
KSSQSVLYESRNKNSVA | WASTREE | QQGHRLPPS: 21 µM (1 of 3 replicates).
KSSQSVLYESYNKNSVA | WASTRES | QQGRRLPLS: 52 µM (1 of 3 replicates).
KSSQSVLYELRNKNSVA | WASTRES | HQCHRLPLS: nd (0 of 3 replicates).
KSSQSVMYEMRNKNSVA | WASTRES | QQNHRLPLS: 63 nM (3 of 3 replicates).
KSSQSSHYESRNKNSVA | WASTRES | QQKHRLPLS: 760 nM (1 of 3 replicates).
KSSQSVLVESRNKNSVA | WASTRES | QQHHRLNLS: 85 µM (2 of 3 replicates).
KSSQSVFYESRIKNSVA | WASTRES | QQVHRLPLS: nd (0 of 3 replicates).
KSSQSVLYESENKNSVA | WASFRES | QQAHRLPLS: 70 µM (3 of 3 replicates).
KSSQSVLYESRNKNSVA | QASTRES | QQTHRLPAS: nd (0 of 3 replicates).
KSSQSNLYEERNKNSVA | WASTRES | QQKHRLPLS: 130 µM (2 of 3 replicates).
KSSQSVLYESRNKNSVA | WMSTRFS | QQSHRLPLS: 260 nM (3 of 3 replicates).
KSSQSVLYESRNKNSVA | WASQREH | QQTHRLPLS: nd (0 of 3 replicates).
KCSQSVLYESRNKNSVA | PASTRES | QQWHRLPLS: nd (0 of 3 replicates).
KSSQSVLYESRNKNSVA | WASTREY | QQWHRLVLS: nd (0 of 3 replicates).
FSSQSVLYESPNKNSVA | WASTRES | QQHHRLPLS: 360 nM (3 of 3 replicates).
KSSQSVLYESRNKNSVA | WAWTRES | QSIHRLPLS: 240 nM (3 of 3 replicates).
KSSQSVLYESRNKNAVA | WASTRES | QCRHRLPLS: nd (0 of 3 replicates).
KSSQSVCYESRNKVSVA | WASTRES | QQIHRLPLS: 66 µM (1 of 3 replicates).
KSSQSVLYESRNKNIVA | WASTRKS | QQVHRLPLS: nd (0 of 3 replicates).
KSSQSVLYESRNKNSVK | WASTYES | QQCHRLPLS: nd (0 of 3 replicates).
KSSQSVLYESRNKNSVQ | WASTRES | QRLHRLPLS: nd (0 of 3 replicates).
KSSQSVLYESRNKDSVA | WASTRES | QQAHRLPNS: 45 nM (3 of 3 replicates).
KSVQSVLYESRNKNIVA | WASTRES | QQPHRLPLS: nd (0 of 3 replicates).
KSSQSVLYESRNKNSKA | WASTRES | VQKHRLPLS: nd (0 of 3 replicates).
KSSQSVRYESRNKNSVA | WASTRES | QQEHRLPLW: nd (0 of 3 replicates).
KSMQSVLYESRNKVSVA | WASTRES | QQGHRLPLS: 20 µM (3 of 3 replicates).
KKSQSVLYESRNKNSVA | WASTRLS | QQDHRLPLS: 630 nM (3 of 3 replicates).
KSLQSVLYWSRNKNSVA | WASTRES | QQDHRLPLS: 2.9 µM (2 of 3 replicates).
KSSQSVLYESRNKNSVA | WASTNES | QQRHRLPLS: 3.3 µM (1 of 3 replicates).
KSSQSVLYESRNKNSFA | WASTRES | QQWHRLPLS: 9.9 µM (1 of 3 replicates).
KSSQSVLYESWNKNSVA | WASTRES | QQKTRLPLS: 4.7 µM (1 of 3 replicates).
KSSQSVLYEVPNKNSVA | WASTRES | QQCHRLPLS: 25 nM (3 of 3 replicates).
KSSQSVLWESRNFNSVA | WASTRES | QQQHRLPLS: nd (0 of 3 replicates).
KSSQSVLYESRNKNSEA | WAMTRES | QQGHRLPLS: 85 µM (1 of 3 replicates).
KSSQSVLYESRNKNSVA | WASTRES | QQRLWLPLS: 3.2 µM (2 of 3 replicates).
KSSQSVLYESRNKNSVA | WASTRES | QITHRLPLM: 6.7 µM (3 of 3 replicates).
KSSQSVSYESRAKNSVA | WASTRES | QQQHRLPLS: 19 nM (3 of 3 replicates).
KSSQSMNYESRNKNSVA | WASTRES | QQMHRLPLS: 1.7 µM (1 of 3 replicates).
KSSQSVLYESRNKNSVY | WAPTRES | QQSHRLPLS: 3.9 µM (1 of 3 replicates).
KSCQSVLYESRNKNSVA | WASTRES | QQMHRLPNS: 22 µM (3 of 3 replicates).
KSSQSVLYESRNKNSVA | WASNRES | QQLHRLPLS: 19 nM (3 of 3 replicates).
KSSQSVLYWSRNKNSVA | WASTRES | QQVLRLPLS: nd (0 of 3 replicates).
KSSQSVLYESRNKNPVA | WASTRES | QSRHRLPLS: 530 nM (3 of 3 replicates).

A selection of 7 entries from above:

For KSSQSVLYESRNKNSEA | WAMTRES | QQGHRLPLS, the assay gave 85 µM (1 of 3 replicates).
For KSSQSVLYESRNKNSVA | WAWTRES | QSIHRLPLS, the assay gave 240 nM (3 of 3 replicates).
For KSSQSVLYESRNKNSVA | WASTNES | QQRHRLPLS, the assay gave 3.3 µM (1 of 3 replicates).
For KSSQSVLYESRNKNSVQ | WASTRES | QRLHRLPLS, the assay gave nd (0 of 3 replicates).
For KSSQSVLYESRNKNSVA | WASTRES | QQRLWLPLS, the assay gave 3.2 µM (2 of 3 replicates).
For KSSQSVLVESRNKNSVA | WASTRES | QQHHRLNLS, the assay gave 85 µM (2 of 3 replicates).
For KSSQSVLYESRNKNSVA | WASTREE | QQGHRLPPS, the assay gave 21 µM (1 of 3 replicates).

For reference, the parent read 4.4 nM as the reference entry and 48 nM as a member of this library.

Data: MIT Lincoln Laboratory AlphaSeq set, Engelhart et al. 2022, doi:10.1038/s41597-022-01779-4, as distributed in FLAb.